PubChem BioAssay (NCI)
Only a part is listed here, and it is no random draw.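 Compound tested at a single concentration for 48 hours in 96-well plates; a percent growth value below 10 was scored as active.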 Some salts or complexes appear as unconnected parts, following the source record. Active and inactive are the calls of the source.

How the values were obtained:
Experiment in all cases: NCI-60 one-dose screen, 48 h (100 = growth as untreated, 0 = no growth, -100 = all killed)
Conditions in all cases: 10 µM
HCT-15 colon = tested on: HCT-15 colon
HT29 colon = tested on: HT29 colon
SNB-75 CNS = tested on: SNB-75 CNS
SNB-19 CNS = tested on: SNB-19 CNS
U251 CNS = tested on: U251 CNS
PC-3 prostate = tested on: PC-3 prostate
SK-MEL-5 melanoma = tested on: SK-MEL-5 melanoma
UACC-62 melanoma = tested on: UACC-62 melanoma
LOX IMVI melanoma = tested on: LOX IMVI melanoma
SK-MEL-28 melanoma = tested on: SK-MEL-28 melanoma

Measured: growth

O=[N+]([O-])c1cc([N+](=O)[O-])c(NCCO)c([N+](=O)[O-])c1
inactive: HCT-15 colon 74.9% | HT29 colon 43.8% | SNB-75 CNS 85.3% | SNB-19 CNS 94% | U251 CNS 81.4% | PC-3 prostate 88.6% | SK-MEL-5 melanoma 99.4% | UACC-62 melanoma 80.4% | LOX IMVI melanoma 47.3% | SK-MEL-28 melanoma 106%

O=[N+]([O-])c1cc([N+](=O)[O-])c(Oc2ccccc2)c([N+](=O)[O-])c1
inactive: HCT-15 colon 102% | HT29 colon 97.5% | SNB-75 CNS 102% | SNB-19 CNS 103% | U251 CNS 93.3% | PC-3 prostate 99.2% | SK-MEL-5 melanoma 108% | UACC-62 melanoma 103% | LOX IMVI melanoma 92.7% | SK-MEL-28 melanoma 110%

NC(=NCCN/C(N)=N/[N+](=O)[O-])N[N+](=O)[O-]
inactive: HCT-15 colon 97.1% | HT29 colon 90.2% | SNB-75 CNS 86.5% | SNB-19 CNS 97.3% | U251 CNS 105% | PC-3 prostate 87% | SK-MEL-5 melanoma 104% | UACC-62 melanoma 106% | LOX IMVI melanoma 94.9% | SK-MEL-28 melanoma 113%

COC(=O)C(O)(c1ccccc1)c1ccccc1
inactive: HCT-15 colon 102% | HT29 colon 112% | SNB-75 CNS 98.4% | SNB-19 CNS 97.2% | U251 CNS 102% | PC-3 prostate 95.9% | SK-MEL-5 melanoma 99.9% | UACC-62 melanoma 90.6% | LOX IMVI melanoma 99.8% | SK-MEL-28 melanoma 104%

O=[N+]([O-])c1cc([N+](=O)[O-])c(O)c([N+](=O)[O-])c1.c1ccc([I+]c2ccccc2)cc1
inactive: HCT-15 colon 79.5% | HT29 colon 26.9% | SNB-75 CNS 80.1% | SNB-19 CNS 69.8% | U251 CNS 62.1% | PC-3 prostate 65.3% | SK-MEL-5 melanoma 32.3% | UACC-62 melanoma 89.9% | LOX IMVI melanoma 49.7% | SK-MEL-28 melanoma 79.5%

O=[N+]([O-])OCCOc1ccc([N+](=O)[O-])cc1[N+](=O)[O-]
inactive: HCT-15 colon 103% | HT29 colon 96.7% | SNB-75 CNS 87.4% | SNB-19 CNS 104% | U251 CNS 97.5% | PC-3 prostate 84.9% | SK-MEL-5 melanoma 99.2% | UACC-62 melanoma 97% | LOX IMVI melanoma 102% | SK-MEL-28 melanoma 111%

CP(=S)(Cl)N(CCCl)CCCl (centres undefined)
inactive: HCT-15 colon 88.7% | HT29 colon 97.2% | SNB-75 CNS 75.7% | SNB-19 CNS 91.1% | U251 CNS 97.8% | PC-3 prostate 90.7% | SK-MEL-5 melanoma 108% | UACC-62 melanoma 99.5% | LOX IMVI melanoma 97.8% | SK-MEL-28 melanoma 96.8%

CCOC(=O)CSc1c(N)c(C)nn1C.O=[N+]([O-])c1cc([N+](=O)[O-])c(O)c([N+](=O)[O-])c1
inactive: HCT-15 colon 97.7% | HT29 colon 93.7% | SNB-75 CNS 68.5% | SNB-19 CNS 97.1% | PC-3 prostate 100% | SK-MEL-5 melanoma 104% | UACC-62 melanoma 96.4% | LOX IMVI melanoma 105% | SK-MEL-28 melanoma 101%
